Experimental data taken from ChEMBL document CHEMBL4303097, “In vitro screening of a FDA approved chemical library reveals potential inhibitors of SARS-CoV-2 replication” (2020).
The list shows a part of the results, in another mix than the full data.

The compounds below were run on SARS-CoV-2 (assay: Inhibition of cell viability relative to arbidol control (inhibition index > 1 indicates higher activity) measured by fluorescence (OD590nm) in Vero E6 cells infected with SARS-CoV-2 (strain BavPat1) at MOI 0.002 after 72hrs).
Assay type: functional, Chlorocebus sabaeus, Vero C1008

Row | SMILES | Inhibition index
1 | COc1ccc(C[C@H](C)NC[C@@H](O)c2ccc(O)c(NC=O)c2)cc1.COc1ccc(C[C@H](C)NC[C@@H](O)c2ccc(O)c(NC=O)c2)cc1.O=C(O)/C=C/C(=O)O | 1.445
